Reference: publication PMC11079024, “Identification of a family of species-selective complex I inhibitors as potential anthelmintics” (Nature Communications, 2024)
Several values for one entry are separate records, joined by “and”; a condition that tells them apart may be missing. Equal values may be shown once. Read-outs that look alike come from different tables or passages of the source.

Chains of the proteins cited; added tags and fusions are not shown. Lines headed by an entry give the natural chain unless they say otherwise; changes in a name come on top. Residues count along the entry.
UniProt P03887, whole entry: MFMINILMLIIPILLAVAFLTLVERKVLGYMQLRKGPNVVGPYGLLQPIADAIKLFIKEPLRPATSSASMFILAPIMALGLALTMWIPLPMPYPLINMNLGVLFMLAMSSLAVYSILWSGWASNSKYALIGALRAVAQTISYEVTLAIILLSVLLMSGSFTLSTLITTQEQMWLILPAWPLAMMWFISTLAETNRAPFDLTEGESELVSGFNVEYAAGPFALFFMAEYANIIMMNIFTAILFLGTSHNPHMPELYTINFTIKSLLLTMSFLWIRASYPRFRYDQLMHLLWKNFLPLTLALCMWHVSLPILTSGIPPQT
UniProt P17694, 34-463: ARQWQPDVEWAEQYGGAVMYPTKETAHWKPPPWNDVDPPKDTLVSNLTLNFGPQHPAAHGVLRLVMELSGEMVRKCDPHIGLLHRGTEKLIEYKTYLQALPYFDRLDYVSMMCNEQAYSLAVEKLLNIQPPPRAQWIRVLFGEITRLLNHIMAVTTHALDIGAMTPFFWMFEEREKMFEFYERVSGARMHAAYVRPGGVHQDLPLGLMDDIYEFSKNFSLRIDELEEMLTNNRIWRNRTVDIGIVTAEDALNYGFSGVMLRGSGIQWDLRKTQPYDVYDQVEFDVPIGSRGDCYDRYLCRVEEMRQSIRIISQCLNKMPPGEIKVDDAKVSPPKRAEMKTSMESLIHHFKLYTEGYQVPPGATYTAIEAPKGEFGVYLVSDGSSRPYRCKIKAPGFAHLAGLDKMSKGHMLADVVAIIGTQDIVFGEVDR
UniProt P42026, 38-216: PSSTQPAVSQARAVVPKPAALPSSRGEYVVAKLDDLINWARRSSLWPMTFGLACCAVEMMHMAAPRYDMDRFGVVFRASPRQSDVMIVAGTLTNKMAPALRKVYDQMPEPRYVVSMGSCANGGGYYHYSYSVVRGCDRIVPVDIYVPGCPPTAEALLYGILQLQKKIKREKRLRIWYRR
UniProt A4UAP3: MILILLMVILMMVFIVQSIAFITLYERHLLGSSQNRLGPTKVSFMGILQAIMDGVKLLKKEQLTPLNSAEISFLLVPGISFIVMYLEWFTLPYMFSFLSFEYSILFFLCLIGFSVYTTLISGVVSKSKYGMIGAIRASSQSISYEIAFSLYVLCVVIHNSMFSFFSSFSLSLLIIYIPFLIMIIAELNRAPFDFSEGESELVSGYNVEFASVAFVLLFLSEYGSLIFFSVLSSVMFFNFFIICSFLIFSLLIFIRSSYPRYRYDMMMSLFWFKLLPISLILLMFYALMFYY

Tests used:
[1] = target: B. taurus (heart) complex I (Bos taurus, UniProt P03887+P17694+P42026); type: biochemical; settings: heart mitochondria
C. briggsae complex I = target: T1, C. briggsae complex I (Caenorhabditis briggsae, UniProt A8X476+A8XFG2+Q8HEC4); assay: In vitro complex I activity assay, C. briggsae mitochondria; type: biochemical; settings: single replicate
T1 sequence (A8X476 31-482): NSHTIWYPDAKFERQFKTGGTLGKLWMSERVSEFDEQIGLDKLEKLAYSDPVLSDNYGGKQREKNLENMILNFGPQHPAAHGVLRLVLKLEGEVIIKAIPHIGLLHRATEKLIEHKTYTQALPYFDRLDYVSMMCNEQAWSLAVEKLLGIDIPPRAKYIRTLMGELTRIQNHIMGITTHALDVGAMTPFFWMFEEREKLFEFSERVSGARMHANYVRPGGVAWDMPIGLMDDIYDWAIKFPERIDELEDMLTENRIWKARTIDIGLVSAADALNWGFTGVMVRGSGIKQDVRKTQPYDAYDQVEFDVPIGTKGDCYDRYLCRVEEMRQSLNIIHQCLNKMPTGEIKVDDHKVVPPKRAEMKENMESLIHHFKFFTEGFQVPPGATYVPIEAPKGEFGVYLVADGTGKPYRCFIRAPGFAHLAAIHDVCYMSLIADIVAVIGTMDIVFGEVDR
T1 sequence (A8XFG2 17-199): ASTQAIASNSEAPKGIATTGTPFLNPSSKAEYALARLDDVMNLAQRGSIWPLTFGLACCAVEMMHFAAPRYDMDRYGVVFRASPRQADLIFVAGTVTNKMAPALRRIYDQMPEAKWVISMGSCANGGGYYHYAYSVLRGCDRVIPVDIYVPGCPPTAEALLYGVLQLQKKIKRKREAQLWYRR
T1 sequence (Q8HEC4 1-291): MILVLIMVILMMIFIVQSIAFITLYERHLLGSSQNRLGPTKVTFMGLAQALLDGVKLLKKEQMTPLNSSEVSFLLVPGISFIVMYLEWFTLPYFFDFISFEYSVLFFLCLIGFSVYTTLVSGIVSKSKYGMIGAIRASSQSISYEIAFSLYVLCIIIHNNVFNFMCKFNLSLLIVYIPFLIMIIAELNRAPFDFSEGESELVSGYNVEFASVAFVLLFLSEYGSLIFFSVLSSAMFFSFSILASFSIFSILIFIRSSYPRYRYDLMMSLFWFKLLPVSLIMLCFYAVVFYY

P. pacificus complex I = P. pacificus complex I (Pristionchus pacificus, UniProt A0A454XZ18+A0A8R1Z3U8+A4UAP3); assay: In vitro complex I activity assay, P. pacificus mitochondria; type: biochemical; settings: single replicate
[2] = test system: P. hermaphrodita complex I; assay: In vitro complex I activity assay, P. hermaphrodita mitochondria; type: biochemical, Phasmarhabditis hermaphrodita
L1 wild-type C. elegans = settings: […]; for KCN survival assay value relative to DMSO control, Mean: mean of replicates; for KCN survival assay value relative to DMSO control, individual replicate: single replicate

SMILES: Cc1ccccc1OCCCCn1cnc2ccccc21 [Compound 7732524]
- B. taurus: C. elegans IC50 Fold Change (Complex I IC50 ~Fold Change) [1]: 2.21
- Complex I IC50 ~Fold Change [1]: 2.2
- IC50 Fold change [1]: 2.21
- in vitro complex I activity relative to solvent control (C. briggsae complex I; 0.0001 µM): 93.046% and 92.454%
- in vitro complex I activity relative to solvent control (C. briggsae complex I; 0.0005 µM): 86.610% and 95.593%
- in vitro complex I activity relative to solvent control (C. briggsae complex I; 0.001 µM): 87.673% and 90.044%
- in vitro complex I activity relative to solvent control (C. briggsae complex I; 0.0025 µM): 90.438% and 89.438%
- in vitro complex I activity relative to solvent control (C. briggsae complex I; 0.005 µM): 102.088% and 95.670%
- in vitro complex I activity relative to solvent control (C. briggsae complex I; 0.013 µM): 83.151% and 84.893%
- in vitro complex I activity relative to solvent control (C. briggsae complex I; 0.025 µM): 66.968% and 78.817%
- in vitro complex I activity relative to solvent control (C. briggsae complex I; 0.063 µM): 36.504% and 49.778%
- in vitro complex I activity relative to solvent control (C. briggsae complex I; 0.125 µM): 23.208% and 15.095% and 39.850%
- in vitro complex I activity relative to solvent control (C. briggsae complex I; 0.313 µM): 5.446% and 0.170% and 18.193%
- in vitro complex I activity relative to solvent control (C. briggsae complex I; 0.625 µM): 0.000% and 2.155% and 0.301%
- in vitro complex I activity relative to solvent control (C. briggsae complex I; 1.5 µM): 0.000% and 3.856%
- in vitro complex I activity relative to solvent control (C. briggsae complex I; 3 µM): 0.000% and 1.040% and 4.090%
- in vitro complex I activity relative to solvent control (C. briggsae complex I; 7.5 µM): 0.735% and 1.191% and 2.237%
- in vitro complex I activity relative to solvent control (C. briggsae complex I; 15 µM): 0.186% and 4.026% and 0.000%
- in vitro complex I activity relative to solvent control (C. briggsae complex I; 37.5 µM): 0.000% and 0.822% and 2.337%
- in vitro complex I activity relative to solvent control (C. briggsae complex I; 75 µM): 0.000% and 1.074%
- in vitro complex I activity relative to solvent control (P. pacificus complex I; 0.0001 µM): 76.630% and 92.164%
- in vitro complex I activity relative to solvent control (P. pacificus complex I; 0.0005 µM): 100.064% and 87.294% and 78.341%
- in vitro complex I activity relative to solvent control (P. pacificus complex I; 0.001 µM): 99.189% and 85.252% and 42.987%
- in vitro complex I activity relative to solvent control (P. pacificus complex I; 0.0025 µM): 98.462% and 65.488% and 128.163%
- in vitro complex I activity relative to solvent control (P. pacificus complex I; 0.005 µM): 105.904% and 74.342% and 120.349%
- in vitro complex I activity relative to solvent control (P. pacificus complex I; 0.013 µM): 86.610% and 65.249% and 105.458%
- in vitro complex I activity relative to solvent control (P. pacificus complex I; 0.025 µM): 68.907% and 60.445% and 91.713%
- in vitro complex I activity relative to solvent control (P. pacificus complex I; 0.063 µM): 48.640% and 29.074% and 62.055%
- in vitro complex I activity relative to solvent control (P. pacificus complex I; 0.125 µM): 15.764% and 13.994% and 44.232%
- in vitro complex I activity relative to solvent control (P. pacificus complex I; 0.313 µM): 12.069% and 4.401% and 8.231%
- in vitro complex I activity relative to solvent control (P. pacificus complex I; 0.625 µM): 17.485% and 8.622% and 8.276%
- in vitro complex I activity relative to solvent control (P. pacificus complex I; 1.5 µM): 15.665% and 7.003% and 6.302%
- in vitro complex I activity relative to solvent control (P. pacificus complex I; 3 µM): 17.516% and 6.831% and 5.367%
- in vitro complex I activity relative to solvent control (P. pacificus complex I; 7.5 µM): 28.020% and 8.306% and 0.416%
- in vitro complex I activity relative to solvent control (P. pacificus complex I; 15 µM): 14.842% and 17.819%
- in vitro complex I activity relative to solvent control (P. pacificus complex I; 37.5 µM): 22.555% and 15.242% and 10.392%
- in vitro complex I activity relative to solvent control (P. pacificus complex I; 75 µM): 13.041% and 7.929% and 1.766%
- in vitro complex I activity relative to solvent control ([2]; 0.0001 µM, Mean): 75.741%
- in vitro complex I activity relative to solvent control ([2]; 0.0001 µM, single replicate): 82.173% and 83.296% and 61.752%
- in vitro complex I activity relative to solvent control ([2]; 0.0005 µM, Mean): 105.346%
- in vitro complex I activity relative to solvent control ([2]; 0.0005 µM, single replicate): 87.421% and 67.900% and 160.717%
- in vitro complex I activity relative to solvent control ([2]; 0.001 µM, Mean): 106.661%
- in vitro complex I activity relative to solvent control ([2]; 0.001 µM, single replicate): 109.453% and 89.574% and 120.956%
- in vitro complex I activity relative to solvent control ([2]; 0.0025 µM, Mean): 99.145%
- in vitro complex I activity relative to solvent control ([2]; 0.0025 µM, single replicate): 66.096% and 130.942% and 100.398%
- in vitro complex I activity relative to solvent control ([2]; 0.005 µM, Mean): 88.008%
- in vitro complex I activity relative to solvent control ([2]; 0.005 µM, single replicate): 81.876% and 90.994% and 91.155%
- in vitro complex I activity relative to solvent control ([2]; 0.013 µM, Mean): 91.956%
- in vitro complex I activity relative to solvent control ([2]; 0.013 µM, single replicate): 80.052% and 70.478% and 125.339%
- in vitro complex I activity relative to solvent control ([2]; 0.025 µM, Mean): 75.701%
- in vitro complex I activity relative to solvent control ([2]; 0.025 µM, single replicate): 72.832% and 63.117% and 91.155%
- in vitro complex I activity relative to solvent control ([2]; 0.063 µM, Mean): 50.326%
- in vitro complex I activity relative to solvent control ([2]; 0.063 µM, single replicate): 39.784% and 53.027% and 58.167%
- in vitro complex I activity relative to solvent control ([2]; 0.125 µM, Mean): 30.881%
- in vitro complex I activity relative to solvent control ([2]; 0.125 µM, single replicate): 34.462% and 29.895% and 28.287%
- in vitro complex I activity relative to solvent control ([2]; 0.313 µM, Mean): 7.562%
- in vitro complex I activity relative to solvent control ([2]; 0.313 µM, single replicate): 17.864% and 2.990% and 1.832%
- in vitro complex I activity relative to solvent control ([2]; 0.625 µM, Mean): 0.000%
- in vitro complex I activity relative to solvent control ([2]; 0.625 µM, single replicate): 0.000%
- in vitro complex I activity relative to solvent control ([2]; 1.5 µM, Mean): 1.018%
- in vitro complex I activity relative to solvent control ([2]; 1.5 µM, single replicate): 0.000% and 3.054%
- in vitro complex I activity relative to solvent control ([2]; 3 µM, Mean): 0.000%
- in vitro complex I activity relative to solvent control ([2]; 3 µM, single replicate): 0.000%
- in vitro complex I activity relative to solvent control ([2]; 7.5 µM, Mean): 0.000%
- in vitro complex I activity relative to solvent control ([2]; 7.5 µM, single replicate): 0.000%
- in vitro complex I activity relative to solvent control ([2]; 15 µM, Mean): 0.000%
- in vitro complex I activity relative to solvent control ([2]; 15 µM, single replicate): 0.000%
- in vitro complex I activity relative to solvent control ([2]; 37.5 µM, Mean): 2.054%
- in vitro complex I activity relative to solvent control ([2]; 37.5 µM, single replicate): 0.000% and 6.161%
- in vitro complex I activity relative to solvent control ([2]; 75 µM, Mean): 1.088%
- in vitro complex I activity relative to solvent control ([2]; 75 µM, single replicate): 0.000% and 3.265%
- Relative Motility (L1 wild-type C. elegans; 50 μM, worm motility 3 hours after the removal of KCN (endpoint), relative to DMSO controls, single biological replicate): 0.052
- KCN survival assay value relative to DMSO control, Mean (L1 wild-type C. elegans; dose 0.2 µM): 1.002
- KCN survival assay value relative to DMSO control, Mean (L1 wild-type C. elegans; dose 0.4 µM): 0.963
- KCN survival assay value relative to DMSO control, Mean (L1 wild-type C. elegans; dose 0.8 µM): 0.941
- KCN survival assay value relative to DMSO control, Mean (L1 wild-type C. elegans; dose 1.6 µM): 0.887
- KCN survival assay value relative to DMSO control, Mean (L1 wild-type C. elegans; dose 3.1 µM): 0.828
- KCN survival assay value relative to DMSO control, Mean (L1 wild-type C. elegans; dose 6.3 µM): 0.509
- KCN survival assay value relative to DMSO control, Mean (L1 wild-type C. elegans; dose 12.5 µM): 0.007
- KCN survival assay value relative to DMSO control, Mean (L1 wild-type C. elegans; dose 25 µM): 0.000
- KCN survival assay value relative to DMSO control, individual replicate (L1 wild-type C. elegans; dose 25 µM): 0.000
- KCN survival assay value relative to DMSO control, Mean (L1 wild-type C. elegans; dose 50 µM): 0.000
- KCN survival assay value relative to DMSO control, individual replicate (L1 wild-type C. elegans; dose 50 µM): 0.000
- KCN survival assay value relative to DMSO control, Mean (L1 wild-type C. elegans; dose 100 µM): 0.000
- KCN survival assay value relative to DMSO control, individual replicate (L1 wild-type C. elegans; dose 100 µM): 0.000
